Here are results for one compound from patent publication US20110136877A1, “2-PHENYL PHENOXYACETIC ACIDS USEFUL FOR TREATING INFLAMMATORY DISORDERS” (LIGAND PHARMACEUTICALS INC., priority 2008, published 2011).

Chains of the proteins cited; added tags and fusions are not shown. Lines headed by an entry give the natural chain unless they say otherwise; changes in a name come on top.
UniProt Q9Y5Y4: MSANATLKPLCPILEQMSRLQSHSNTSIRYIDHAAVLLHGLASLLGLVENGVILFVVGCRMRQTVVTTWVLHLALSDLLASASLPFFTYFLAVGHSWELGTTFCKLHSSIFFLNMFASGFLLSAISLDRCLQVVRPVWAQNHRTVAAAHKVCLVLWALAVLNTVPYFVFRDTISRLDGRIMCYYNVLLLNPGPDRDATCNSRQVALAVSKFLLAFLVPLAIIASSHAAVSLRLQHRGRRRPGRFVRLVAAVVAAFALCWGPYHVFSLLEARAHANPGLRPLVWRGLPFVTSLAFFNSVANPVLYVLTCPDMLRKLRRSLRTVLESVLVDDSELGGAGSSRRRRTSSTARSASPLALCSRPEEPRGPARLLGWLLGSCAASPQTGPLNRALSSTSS

SMILES strings stand for the structures.

In this assay the target is human CRTH2 (Homo sapiens, UniProt Q9Y5Y4). Put plainly: [35S]GTPγS binding assay (SPA). The class given is biochemical. The conditions noted are these: read-out: CRTH2 GTPγS assay IC50; membranes from CHO-K1 cells stably expressing human CRTH2; 60 nM DHK-PGD2. How it is done: [^35S]GTPγS Binding Assay
SPA [^35S]GTPγS binding was performed on membranes from CHO-K1 cells stably expressing human CRTH2. To a white, clear-bottomed 384-well plate, 4 μg membrane protein was incubated in the binding buffer (20 mM HEPES, pH 7.4, 10 mM MgCl2, 300 mM NaCl, 0.2% BSA) with 60 nM DHK-PGD2, 500 pM [^35S]GTPγS, 10 μM GDP, and 100 μg wheat germ agglutinin-coupled SPA beads (GE Healthcare) with and without increasing concentrations of compounds. The final assay volume was 40 μL and contained 1% DMSO. Samples were incubated for 2 h at ambient temperature. Plates were centrifuged 5 min at 1500 rpm. Plates were read after an additional 4 h using the Trilux 1450 Microbeta (PerkinElmer) with a 30 sec/well reading time.

Take `CN(Cc1cccc(-c2cc(C(F)(F)F)ccc2OCC(=O)O)c1)C(=O)Oc1cccnc1`: the IC50 lay in the range of 0.1 to 1 µM.
